Measured values taken from US20260382572A1, “TREATMENT OF FRONTOTEMPORAL DEMENTIA OR FRONTOTEMPORAL LOBAR DEMENTIA” (published 2026).

The chains behind the UniProt entries cited, without tags or fusion partners.
UniProt P08183, whole entry: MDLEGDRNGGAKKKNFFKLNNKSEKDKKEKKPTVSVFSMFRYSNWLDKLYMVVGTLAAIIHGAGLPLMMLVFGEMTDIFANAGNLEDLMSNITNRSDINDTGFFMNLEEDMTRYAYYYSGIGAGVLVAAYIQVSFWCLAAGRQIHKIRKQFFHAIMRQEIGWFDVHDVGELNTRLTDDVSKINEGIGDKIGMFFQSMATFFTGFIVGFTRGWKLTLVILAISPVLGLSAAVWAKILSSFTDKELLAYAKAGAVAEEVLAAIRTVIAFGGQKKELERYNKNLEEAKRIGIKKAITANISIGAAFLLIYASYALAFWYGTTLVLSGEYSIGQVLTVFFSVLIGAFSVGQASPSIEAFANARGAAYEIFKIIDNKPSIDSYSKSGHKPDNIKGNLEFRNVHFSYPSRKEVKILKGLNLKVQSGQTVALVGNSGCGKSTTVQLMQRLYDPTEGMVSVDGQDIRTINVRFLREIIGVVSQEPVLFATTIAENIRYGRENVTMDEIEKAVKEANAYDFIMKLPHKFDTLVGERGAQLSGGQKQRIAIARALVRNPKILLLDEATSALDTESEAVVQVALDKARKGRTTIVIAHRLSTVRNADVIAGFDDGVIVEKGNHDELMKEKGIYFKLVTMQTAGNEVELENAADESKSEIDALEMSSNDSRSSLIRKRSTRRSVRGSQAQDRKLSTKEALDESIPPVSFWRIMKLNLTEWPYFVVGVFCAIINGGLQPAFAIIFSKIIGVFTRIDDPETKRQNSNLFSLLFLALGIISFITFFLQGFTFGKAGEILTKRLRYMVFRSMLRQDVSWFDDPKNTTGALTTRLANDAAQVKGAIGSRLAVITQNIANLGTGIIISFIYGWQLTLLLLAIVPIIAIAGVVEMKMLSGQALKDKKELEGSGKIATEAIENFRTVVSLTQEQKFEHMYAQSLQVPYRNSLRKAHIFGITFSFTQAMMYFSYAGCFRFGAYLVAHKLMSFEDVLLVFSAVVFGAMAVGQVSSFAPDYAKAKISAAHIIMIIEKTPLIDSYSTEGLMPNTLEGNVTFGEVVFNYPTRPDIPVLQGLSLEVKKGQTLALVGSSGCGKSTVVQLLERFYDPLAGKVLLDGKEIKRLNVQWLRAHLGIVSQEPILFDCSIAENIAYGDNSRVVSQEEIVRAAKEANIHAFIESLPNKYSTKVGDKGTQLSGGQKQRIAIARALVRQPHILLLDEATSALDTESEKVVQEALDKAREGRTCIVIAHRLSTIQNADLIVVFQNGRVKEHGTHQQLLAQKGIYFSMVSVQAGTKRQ

Legend:
[1] = system: hyperphosphorylated tau (hTauP301L); experiment: hTauP301L FTD model, adult mice: hyperphosphorylated tau by immunofluorescence in hippocampus; settings: adult (3-4 months) mice; oral once a day 35 days; DG, CA1 and CA3; 50 mg/kg (FIG. 7)
Experimental: (§1) FIG. 7. Compound 1 reduces hyperphosphorylated tau species in adult mice with hTauP301L tauopathy after 35 days oral administration (50 mg/kg/day). (A). Representative images of hyperphosphorylated tau intensity measured by AT8 and AT180 antibodies in three different regions of the hippocampus (GD, CA3 and CA1) (n=11-12). (B) Quantification AT8 intensity, normalized to CA3 intensity of Sham animals. (C) Quantification of AT180 intensity, normalized to CA3 intensity of Sham animals (n=9-12).
Immunofluorescence labelling in in vitro and in vivo samples was performed as described in [Luengo, Enrique et al. “Implication of type 4 NADPH oxidase (NOX4) in tauopathy.” Redox biology vol. 49 (2022): 102210. doi:10.1016/j.redox.2021.102210].
In vivo hTau301L model was induced by stereotaxic injection of AAV-hTauP301L (AAV-hTau) particles as described in [Luengo, Enrique et al. “Implication of type 4 NADPH oxidase (NOX4) in tauopathy.” Redox biology vol. 49 (2022): 102210. doi:10.1016/j.redox.2021.102210]. […]
(§2) Example 2.5. […] After 35 days treatment, hyperphosphorylated tau levels were evaluated by immunofluorescence and by WB in soluble and insoluble in sarkosyl fractions. […]
Hyperphosphorylated tau levels measured with the antibodies AT8 (p-Ser202/p-Thr205) and AT180 (p-Thr231) were analysed by immunofluorescence in fixed postmortem brain slices of treated mice (FIG. 7A).

[2] = system: adult mice with hTauP301L tauopathy; experiment: hTauP301L FTD model, adult mice: Object location test (OLT); settings: 35 days
Experimental: FIG. 9. Compound 1 prevents cognitive decline in spatial memory behavioural paradigms in adult mice with hTauP301L tauopathy after 35 days oral administration (20 mg/kg or 50 mg/kg/day). (A) Representation of T-maze alternation test and (B) Object Location test (OLT). (C) Average percentage of success in seven independent attempts (n=14-19). (D) Discrimination index in the OLT assay (AAV-eGFP, n=15; AAV-hTau, n=10; AAV-hTau+Compound 1 at 20 mg/kg, n=5; AAV-hTau+Compound 1 at 50 mg/kg, n=8).
In vivo hTau301L model was induced by stereotaxic injection of AAV-hTauP301L (AAV-hTau) particles as described in [Luengo, Enrique et al. “Implication of type 4 NADPH oxidase (NOX4) in tauopathy.” Redox biology vol. 49 (2022): 102210. doi:10.1016/j.redox.2021.102210]. Control animals were injected with AAV-GFP. Evaluation of hyperphosphorylated tau in sarkosyl soluble and insoluble fractions; microgliosis; AT8 and AT180 by immunofluorescence; and cognitive test were performed as described previously [Luengo, Enrique et al. “Implication of type 4 NADPH oxidase (NOX4) in tauopathy.” Redox biology vol. […]
as §2
Spatial memory was measured using the T-maze (FIG. 9A) and the Object localization tests (OLT; FIG. 9B).

[3] = system: aged mice with hTauP301L tauopathy; experiment: hTauP301L FTD model, aged mice: T-maze; settings: 35 days
Experimental: as §1, with “10.” for “7.”, “species and improves cognitive behaviour” for “species”, “aged (16-18 months old)” for “adult”, “after” for “after 35”, “(n=12).” for “(n=11-12).”, “animals. (D) Experimental protocol of T-maze alternation test and (E) Object Location test (OLT). (F) Average of the percentage of success in seven independent attempts (n=6).” for “animals (n=9-12).”
In vivo hTau301L model was induced by stereotaxic injection of AAV-hTauP301L (AAV-hTau) particles as described in [Luengo, Enrique et al. “Implication of type 4 NADPH oxidase (NOX4) in tauopathy.” Redox biology vol. 49 (2022): 102210. doi:10.1016/j.redox.2021.102210]. Control animals were injected with AAV-GFP. […]
Example 2.6. […] 35 Days of treatment with a single oral dose of Compound 1 at 50 mg/kg reduced hyperphosphorylated tau levels induced by hTauP301L, measured by AT8 and AT180 antibodies in DG, CA3 and CA1 regions of the hippocampus (FIG. 10A-C). […]

[4] = molecular target: P-glycoprotein efflux transporter (Homo sapiens, UniProt P08183); experiment: Caco-2 efflux transporter substrate panel: P-glycoprotein (verapamil)
Experimental: Example 3.2. ADME-Tox: Caco-2 Efflux Transporter Substrate Panel. The permeability of Compound 1 in the Caco-2 cell line was determined in the AB and BA directions, in the absence or presence of verapamil (a Pgp-specific inhibitor) or Ko143 (a selective inhibitor of the ATP-binding cassette subfamily B, ABCB) (Eurofins Discovery).

[5] = Liver microsome stability, human; settings: 1 μM, 120 min
Excerpt: Example 3.3. Stability in mouse, dog, and human liver microsomes. […] In this line, results in two different species correlated with human microsomes. […] This correlation is widely described for different drugs in which mouse metabolism is higher due to the high blood flow and quick metabolic status of mice.

With COc1ccc2c(c1)CC(c1c[nH]c3ccc(OC)cc13)N2 (stereo not shown) the AT8 fluorescence [1] was “significantly reduced”, the AT180 fluorescence [1] was “significantly reduced” and the OLT discrimination index ([2]; oral 50 mg/kg) was “total recovery was achieved”. The OLT discrimination index ([2]; oral 20 and 50 mg/kg) was “dose-dependent improvement”, the “spatial memory loss, T-maze” value ([3]; aged (16-18 months) mice, oral 50 mg/kg) was “prevented” and the “cognitive decline (summary)” value ([3]; young and aged subjects, 50 mg/kg oral once a day, T-maze and OLT) was “prevented cognitive decline”. The “P-glycoprotein efflux transporter substrate” value [4] was “not a substrate”, the “permeability in the presence of verapamil” value ([4]; both directions) was “not altered” and the “stability in human liver microsomes (in words)” value [5] was “good stability”. For the same compound, the T1/2 ([5]; human liver microsomes) was 13.07 min and 13.07 ± 1.15 min.

“And” between values parts separate entries of the source, which are not always exact repeats. Identical values can stand only once.
